Rev-erbA mod: modulators of human Rev-erb alpha DNA binding; P20393; activity, % at 10 µM; Rev-erbα–FITC-DNA binding, fluorescence polarization, 90 min; hit rate 0.79% among 370,000;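 active means activity above about 14%, limit read from the data; passing the limit was not always enough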;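 further: 0% = DMSO wells with 35 nM protein and 100% = DMSO wells with 750 nM protein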
PDI turbidity: inhibitors of human protein disulfide isomerase; P07237; PDI insulin aggregation turbidity, A650, 90 min; inhibition, % at 10 µM; hit rate 0.052% among 350,000; AID 588391;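 active means mean inhibition across replicates of 30% or more, whatever share of single replicates reach that level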
Yeast UUG start: modulators of start codon recognition fidelity in yeast. S. cerevisiae UUG-firefly luciferase reporter, luminescence/redox ratio. activity score, % at 18.7 µM. 0.13% of 350,000 active. AID 602363;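 active = replicate mean at a twofold rise or more, about +100% in these data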;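 also: firefly luciferase made from a UUG start codon reports start codon fidelity; reporter light over untreated wells divided by growth signal over untreated wells; some hits fall short of that in this replicate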
GSIS activator: primary screen for activators of insulin secretion dependent on glucose, INS-1E cells, GLuc reporter luminescence. INS-1E GLuc reporter insulin secretion, 2-3 h. AID 743287. activation, % at 16.6 µM. hit rate 0.61% among 370,000;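 active means lowest replicate activation of at least 40%, so every replicate reaches that level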;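 further: 0% = median of neutral control wells and 100% = median of IBMX positive control wells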
ERp5 block: ERp5 (human) disulfide isomerase inhibition. hit rate 0.05% among 350,000. inhibition, % at 9.99 µM. ERp5 insulin aggregation, absorbance 650 nm, 90 min;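 active means mean replicate inhibition above about 25%, with every replicate also reaching it, limit read from the data, passing the limit was not always enough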
SMARCA2 act: SMARCA2 function activation, primary screen; activation, % at 9.1 µM; MG213 cells, MMTV-luciferase reporter, dexamethasone, overnight; AID 652017; hit rate 1% among 370,000; in the data active means activation above about 7.8%;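 further: 0% = vehicle wells and 100% = reference activator wells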
Numbers without * were called inactive; x = not tested or not shown. Only some compounds are listed: those with a hit (about 2.1% of all), similar ones and a draw of the others.

SMILES | Rev-erbA mod | PDI turbidity | Yeast UUG start | GSIS activator | ERp5 block | SMARCA2 act
CCOc1ccc(CCNC(=O)COC(=O)c2nc(Cl)ccc2Cl)cc1OCC | -4.6 | -5.2 | -9.2 | 43.7* | -3.5 | -1.3
O=C(C[C@@H]1C=C[C@H](NC(=O)Nc2cc(F)ccc2F)[C@H](CO)O1)NCc1ccc2c(c1)OCO2 | x | x | x | 7.7 | 0.5 | x
C[C@@H]1CN([C@@H](C)CO)C(=O)c2cc(NS(=O)(=O)c3ccccc3)ccc2O[C@H]1CN(C)C(=O)Nc1cccc2ccccc12 | x | x | 8.8 | 12.6 | -0.8 | x
CO[C@H]1C[C@@H](O[C@@H]2/C(C)=C/C[C@@H]3C[C@@H](C[C@]4(CC[C@H](C)[C@@H](C5CCCCC5)O4)O3)OC(=O)[C@@H]3C=C(C)/C(=N/O)[C@H]4OC/C(=C\C=C\[C@@H]2C)[C@]43O)O[C@@H](C)[C@H]1O | -1.9 | x | x | x | x | x
O=[N+]([O-])c1ccccc1OCc1nc(-c2cccs2)no1 | 3.4 | -0.9 | x | -2.9 | 0.2 | 2.4
Cc1ccc(OCc2nc(-c3cccs3)no2)c([N+](=O)[O-])c1 | -0.4 | 8.4 | x | 5.0 | 3.7 | 7.9*
Cc1noc(C)c1NC(=O)N(C)C[C@H]1Oc2ccc(NS(=O)(=O)c3ccc(Cl)cc3)cc2CC(=O)N([C@H](C)CO)C[C@H]1C | x | x | 15.3 | -1.0 | 3.0 | x
CN1CCN(c2ccc(NC(=O)c3ccc(Oc4ccccc4)cc3)cc2)CC1 | -3.9 | -5.7 | -4.6 | 50.3* | 1.9 | -1.1
O=C(C[C@H]1CC[C@@H](NC(=O)Nc2ccccc2)[C@@H](CO)O1)NCc1ccccn1 | x | x | -9.3 | 7.0 | 16.4 | x
CSc1ccc2nnc(-c3cccc(F)c3)n2n1 | 10.2 | 17.2 | -21.3 | 53.2* | x | 0.8
C[C@H]1CN([C@@H](C)CO)C(=O)c2cc(C#CC3CC3)cnc2O[C@H]1CN(C)Cc1ccccc1C(=O)O | x | x | 5.8 | -5.2 | 2.3 | x
O=[N+]([O-])c1cccc(/C=C/c2nc[nH]c2[N+](=O)[O-])c1 | 7.7 | -1.3 | -15.9 | 40.2* | 0.1 | -1.5
CCCNC(=O)N1CC2(C1)[C@H](c1ccccc1)[C@H](CO)N2Cc1cccc(F)c1 | x | x | x | 2.4 | -0.1 | x
Cc1cccc(OCC(=O)Nc2ccccc2C(=O)N2CCOCC2)c1 | 2.3 | -5.9 | -4.4 | 4.0 | x | -1.8
Cc1cc(C)cc(OCC(=O)Nc2ccccc2C(=O)N2CCOCC2)c1 | -3.1 | 37.2* | -6.9 | 35.8 | 0.8 | -1.3
COc1ccc(-c2noc(CCC(=O)Nc3cccnc3)n2)cc1OC | 1.9 | 1.5 | -9.2 | 65.7* | x | 0.8
[N-]=[N+]=Nc1ccccc1C[C@@]1(C(=O)N2CCOCC2)N=C(c2ccc(OCCCO)cc2)O[C@@H]1c1ccccc1 | x | x | -8.9 | x | 1.4 | x
CN(C)CCN(C(=O)c1ccc(S(=O)(=O)N(C)c2ccccc2)cc1)c1nc2ccc(Cl)cc2s1 | -3.9 | 4.0 | -1.6 | x | -7.4 | 14.4*
CN(C)CCN(C(=O)c1ccc(S(=O)(=O)N(C)c2ccccc2)cc1)c1nc2cc3c(cc2s1)OCO3 | 8.8 | 4.8 | -2.8 | -6.1 | 1.4 | -0.6
C[C@@H]1CN([C@@H](C)CO)C(=O)c2cc(NC(=O)Nc3ccc(F)cc3)ccc2O[C@@H](C)CCCCO[C@H]1CN(C)S(=O)(=O)c1ccccc1 | x | x | 30.5 | 3.0 | -0.9 | x
C[C@@H]1CN([C@@H](C)CO)C(=O)c2cc(NC(=O)Cn3cnnn3)ccc2O[C@H]1CN(C)C(=O)Nc1ccc2c(c1)OCO2 | x | x | -8.6 | 0.3 | -0.7 | x
CCOc1ncccc1C(=O)NCc1cccc(OC)c1 | -9.4 | -6.3 | 17.4 | 87.6* | x | -1.0
CCOc1ncccc1C(=O)Nc1ncc(C)s1 | -12.6 | 0.0 | x | 110.1* | -1.1 | -0.1
CCOc1ncccc1C(=O)NC(C)CCc1ccccc1 (stereo not drawn) | 1.1 | -8.5 | -8.5 | 51.4* | 0.2 | -0.9
CCOc1ncccc1C(=O)NCc1ccc(OC)cc1 | x | 14.0 | -7.5 | x | x | x
Cc1noc(C)c1NC(=O)N(C)C[C@H]1Oc2c(NC(=O)C3CC3)cccc2C(=O)N([C@@H](C)CO)C[C@H]1C | x | x | -2.2 | -0.9 | -3.6 | x
COc1ccc(O)c(C(=O)CC(=O)c2ccc(F)cc2)c1 | -0.5 | -8.2 | -20.5 | -31.8 | x | 0.7
COc1ccc(O)c(C(=O)CC(=O)c2cccnc2)c1 | -4.5 | 11.5 | 1.4 | 7.3 | 1.2 | 13.2*
CCn1c(NC(=O)c2ccco2)c(-c2ccccc2Cl)c(=O)c2ccccc21 | 1.7 | 13.6 | -17.3 | x | x | 8.0*
Cn1c(NC(=O)c2ccco2)c(-c2ccccc2)c(=O)c2ccccc21 | -1.4 | 2.4 | x | -3.0 | x | -2.2

Nothing new here: entries from further up.
SMILES | Rev-erbA mod | PDI turbidity | Yeast UUG start | GSIS activator | ERp5 block | SMARCA2 act
COc1ccc(-c2noc(CCC(=O)Nc3cccnc3)n2)cc1OC | 1.9 | 1.5 | -9.2 | 65.7* | x | 0.8
[N-]=[N+]=Nc1ccccc1C[C@@]1(C(=O)N2CCOCC2)N=C(c2ccc(OCCCO)cc2)O[C@@H]1c1ccccc1 | x | x | -8.9 | x | 1.4 | x

More compounds
SMILES | Rev-erbA mod | PDI turbidity | Yeast UUG start | GSIS activator | ERp5 block | SMARCA2 act
CNC[C@H]1OCCCC[C@@H](C)Oc2ccc(NC(=O)NC3CCCCC3)cc2C(=O)N([C@@H](C)CO)C[C@H]1C | x | x | x | 4.2 | x | x
Cc1c(NC(=O)/C(C#N)=C/c2c(Oc3ccccc3)nc3ccccn3c2=O)c(=O)n(-c2ccccc2)n1C | 5.2 | -21.6 | x | 44.5* | x | 3.9
O=C(Cc1ncc(C(F)(F)F)cc1Cl)NCCc1ccccn1 | -0.4 | -3.7 | x | 17.4 | -4.2 | 7.9*
C=CCN1C(=O)c2n[nH]c(COC)c2C1c1ccc2c(c1)OCO2 (stereo not drawn) | 8.5 | x | x | 14.6 | 2.3 | -0.5
C=CCN1C(=O)c2n[nH]c(COC)c2C1c1ccc(F)cc1 (stereo not drawn) | -2.9 | x | x | 64.8* | 1.2 | -4.1
Cc1cccc(NC(=O)CNC(=O)COc2ccc(-c3ccc(C#N)cc3)cc2)c1C | 13.6 | -38.2 | x | 66.7* | x | -2.1
COc1ccc(/C=C/C(=O)Oc2ccc(/C=N/NC(=O)c3ccccc3)cc2)cc1OC | -5.7 | 19.7 | -13.0 | 128.9* | x | -2.2
COc1cc(/C=N/NC(=O)CCOc2ccccc2C)cc(Br)c1O | 2.9 | -4.3 | x | 1.3 | -4.7 | -2.9
COc1ccc(NC(=O)Cn2cnc3ccccc3c2=O)cc1OC | -4.4 | -1.2 | x | 0.3 | 2.3 | -1.7
COc1ccc(/C=N/NC(=O)Cn2cnc3ccccc3c2=O)cc1OC | 3.7 | -4.8 | -7.8 | 56.2* | x | -0.7
COc1ccc(/C=N/NC(=O)CCOc2ccccc2C)cc1OC | 0.2 | 9.8 | x | 52.9* | -9.1 | 0.7
COc1ccccc1-c1ccc([C@@H]2[C@@H](C#N)N(C(=O)NC3CCCC3)[C@@H]2CO)cc1 | x | x | x | -30.1 | -4.4 | x
O=C(c1ccccc1)c1ccc2ccccc2n1 | 0.2 | -2.3 | -6.9 | 50.3* | x | 1.3
C=CCNC(=O)[C@@H]1[C@H]2C(=O)O[C@H](c3ccccc3)[C@H](c3ccccc3)N2[C@H](c2ccc(OCCO)cc2)[C@@]12C(=O)Nc1ccc(C#CCCO)cc12 | x | x | x | x | 3.2 | x
CC(C)NC(=O)Nc1ccc2c(c1)C(=O)N([C@@H](C)CO)C[C@H](C)[C@H](CN(C)S(=O)(=O)c1cn(C)cn1)OCCCC[C@@H](C)O2 | x | x | 13.6 | 21.7 | -0.5 | x
COc1ccc(-c2nnc(SCC(=O)Nc3cc(C)on3)n2C)cc1OC | -4.0 | -2.0 | -12.2 | 65.5* | 2.2 | 4.0
COc1ccc2c(c1)nc(-c1cccc(Br)c1)c(=O)n2C(c1ccccn1)c1nc2ccccc2[nH]1 (stereo not drawn) | 0.0 | x | -20.5 | 4.0 | -6.2 | 7.9*

Results in ERp5 block, Yeast UUG start and PDI turbidity, for 3 of the compounds above:
mol	ERp5 block	Yeast UUG start	PDI turbidity
CN1CCN(c2ccc(NC(=O)c3ccc(Oc4ccccc4)cc3)cc2)CC1	1.9	-4.6	-5.7
CCOc1ncccc1C(=O)NCc1cccc(OC)c1	x	17.4	-6.3
Cc1cccc(NC(=O)CNC(=O)COc2ccc(-c3ccc(C#N)cc3)cc2)c1C	x	x	-38.2

Bioassay records (PubChem)
